Ab-14 light chain CDR variants: yeast mating affinities

Reference: Engelhart et al. 2022, doi:10.1038/s41597-022-01779-4. File: FLAb, binding data.

Target peptide (SARS-CoV-2 spike, HR2 region): PDVDLGDISGINAS

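The starting antibody came from a phage panning campaign against this peptide. Library AAYL50 holds single substitutions and randomly drawn double and triple substitutions in the CDRs. AlphaSeq pools MATa yeast showing the antibodies with MATalpha yeast showing the peptide. Pairs that bind mate more often; barcode pairs of the diploids are counted by sequencing. Read counts were normalised to the haploid input and turned into Kd by a linear fit to BCL2-family pairs of known affinity, for each replicate. Each pool was mated in three replicate cultures.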

The variants keep the heavy chain, the linker and the frameworks of Ab-14 (scFv order VH, a (GGGGS)3 linker, VL).
VH: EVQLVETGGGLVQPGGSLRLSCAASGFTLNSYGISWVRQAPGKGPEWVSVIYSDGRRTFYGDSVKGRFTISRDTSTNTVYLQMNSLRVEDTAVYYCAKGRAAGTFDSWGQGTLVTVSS
VL: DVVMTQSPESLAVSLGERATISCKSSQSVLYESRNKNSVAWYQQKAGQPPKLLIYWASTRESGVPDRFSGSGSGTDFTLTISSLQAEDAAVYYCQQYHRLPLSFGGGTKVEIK

The whole VL of each variant is written out. This list gathers variants with a substitution at A40 (VL, numbered from residue 1). Values are apparent Kd, the geometric mean of the replicates that gave a signal; lower means stronger binding. A pair that was not seen in any replicate is written "no signal"; this usually means weak binding, but a binder can also be missed. Three control strains display no target. For library AAYL50, 18% of the pairings with them gave a signal, with a median of 15 µM and one signal in twenty below 970 nM, so weak values seen in few replicates may be background. The control count says in how many pairings with the empty strains this scFv gave a signal.

- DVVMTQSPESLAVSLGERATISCKSSQSVLYESREKNSVPWYQQKAGQPPKLLIYWASTRESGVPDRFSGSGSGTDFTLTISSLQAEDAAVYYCQQYHRLPESFGGGTKVEIK -> 4.1 µM (1 of 3 replicates; controls 0 of 9)
- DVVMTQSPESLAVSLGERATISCKSSQSVLYESRNKNSVVWYQQKAGQPPKLLIYWASTRESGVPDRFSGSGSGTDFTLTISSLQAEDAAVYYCQQYHRLGLSFGGGTKVEIK -> no signal (0 of 3 replicates; controls 0 of 9)
- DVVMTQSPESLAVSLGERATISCKSSQSVLYESRNKNSVCWYQQKAGQPPKLLIYWASSRESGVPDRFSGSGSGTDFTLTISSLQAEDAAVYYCQQYWRLPLSFGGGTKVEIK -> no signal (0 of 3 replicates; controls 0 of 9)
- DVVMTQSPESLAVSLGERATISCKSSQSVLYDSRNKNSVGWYQQKAGQPPKLLIYWASTRESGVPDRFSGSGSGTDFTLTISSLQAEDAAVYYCQQYHRLPLSFGGGTKVEIK -> 31 µM (1 of 3 replicates; controls 1 of 9)
- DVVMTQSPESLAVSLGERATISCKSSQSVFYGSRNKNSVEWYQQKAGQPPKLLIYWASTRESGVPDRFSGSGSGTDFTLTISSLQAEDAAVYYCQQYHRLPLSFGGGTKVEIK -> 7.6 µM (1 of 3 replicates; controls 3 of 9)
- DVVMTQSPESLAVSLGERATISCKSSQSVLYESRNKNSVKWYQQKAGQPPKLLIYWASTRESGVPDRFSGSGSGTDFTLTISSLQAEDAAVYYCDQYHPLPLSFGGGTKVEIK -> no signal (0 of 3 replicates; controls 0 of 9)
- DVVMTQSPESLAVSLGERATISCKSSQSVLYESRNKNSVKWYQQKAGQPPKLLIYWASTRESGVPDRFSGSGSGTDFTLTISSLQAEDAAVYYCQQYHCLPLSFGGGTKVEIK -> no signal (0 of 3 replicates; controls 1 of 9)
- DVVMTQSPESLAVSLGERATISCPSSQSVLYESRNKNSVVWYQQKAGQPPKLLIYWASTRESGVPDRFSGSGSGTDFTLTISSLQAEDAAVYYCQQYHILPLSFGGGTKVEIK -> no signal (0 of 3 replicates; controls 1 of 9)
- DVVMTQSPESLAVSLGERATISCKSSQSKLYESRNKNSVLWYQQKAGQPPKLLIYWASTRESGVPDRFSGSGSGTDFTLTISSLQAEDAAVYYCQQYHRLPLYFGGGTKVEIK -> 19 µM (1 of 3 replicates; controls 0 of 9)
- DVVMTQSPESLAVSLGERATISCKSSQSVLYESGNKNSVQWYQQKAGQPPKLLIYWASTRESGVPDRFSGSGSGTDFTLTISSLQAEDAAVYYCQQYHPLPLSFGGGTKVEIK -> no signal (0 of 3 replicates; controls 0 of 9)
- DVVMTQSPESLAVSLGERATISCKSSKYVLYESRNKNSVCWYQQKAGQPPKLLIYWASTRESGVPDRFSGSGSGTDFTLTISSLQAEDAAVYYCQQYHRLPLSFGGGTKVEIK -> no signal (0 of 3 replicates; controls 0 of 9)
- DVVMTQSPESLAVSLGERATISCKSSQSVLYESRNKNSVQWYQQKAGQPPKLLIYWASTRESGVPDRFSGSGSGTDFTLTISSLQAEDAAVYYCQAFHRLPLSFGGGTKVEIK -> 2.2 µM (2 of 3 replicates; controls 1 of 9)
- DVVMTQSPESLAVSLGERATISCKSSQSVLYEKRNKNSVWWYQQKAGQPPKLLIYWASTRESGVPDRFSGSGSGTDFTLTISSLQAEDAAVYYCQQYHRNPLSFGGGTKVEIK -> no signal (0 of 3 replicates; controls 0 of 9)
- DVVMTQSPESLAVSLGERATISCKSSQSVLYESRNKNSVSWYQQKAGQPPKLLIYWWSTRESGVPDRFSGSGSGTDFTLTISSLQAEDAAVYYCQQYTRLPLSFGGGTKVEIK -> no signal (0 of 3 replicates; controls 0 of 9)
- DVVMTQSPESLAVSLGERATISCKSSQSVLYESRNKNSVTWYQQKAGQPPKLLIYWASPRESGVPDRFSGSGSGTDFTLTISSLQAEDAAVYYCQYYHRLPLSFGGGTKVEIK -> no signal (0 of 3 replicates; controls 2 of 9)
- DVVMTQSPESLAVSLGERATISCKSSQSVLYESRNKNSVCWYQQKAGQPPKLLIYWASTLEKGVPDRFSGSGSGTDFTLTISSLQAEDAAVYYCQQYHRLPLSFGGGTKVEIK -> 11 µM (3 of 3 replicates; controls 2 of 9)
- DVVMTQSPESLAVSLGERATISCKSSDSVLYESRNKNSVSWYQQKAGQPPKLLIYTASTRESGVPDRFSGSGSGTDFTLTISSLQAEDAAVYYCQQYHRLPLSFGGGTKVEIK -> no signal (0 of 3 replicates; controls 3 of 9)
- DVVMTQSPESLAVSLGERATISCKSSQSVLVESRNKNFVGWYQQKAGQPPKLLIYWASTRESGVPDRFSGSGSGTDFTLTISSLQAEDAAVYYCQQYHRLPLSFGGGTKVEIK -> no signal (0 of 3 replicates; controls 0 of 9)
- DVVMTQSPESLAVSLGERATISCKESQSVLYESRNKNSVIWYQQKAGQPPKLLIYWASTRESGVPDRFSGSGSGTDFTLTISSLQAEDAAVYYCQQYHMLPLSFGGGTKVEIK -> 530 µM (1 of 3 replicates; controls 0 of 9)
- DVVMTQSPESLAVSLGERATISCKSSQSVLYESRNKNSVNWYQQKAGQPPKLLIYQASTRESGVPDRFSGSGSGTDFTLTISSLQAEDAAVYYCQQYHRLNLSFGGGTKVEIK -> no signal (0 of 3 replicates; controls 0 of 9)